# Data reported in ChEMBL document CHEMBL3886143, “(Hetero)aryl cyclopropylamine compounds as LSD1 inhibitors” (2016).
# By UniProt entry, the sequences of proteins in these tests, tags left out.
# UniProt P27338, whole entry: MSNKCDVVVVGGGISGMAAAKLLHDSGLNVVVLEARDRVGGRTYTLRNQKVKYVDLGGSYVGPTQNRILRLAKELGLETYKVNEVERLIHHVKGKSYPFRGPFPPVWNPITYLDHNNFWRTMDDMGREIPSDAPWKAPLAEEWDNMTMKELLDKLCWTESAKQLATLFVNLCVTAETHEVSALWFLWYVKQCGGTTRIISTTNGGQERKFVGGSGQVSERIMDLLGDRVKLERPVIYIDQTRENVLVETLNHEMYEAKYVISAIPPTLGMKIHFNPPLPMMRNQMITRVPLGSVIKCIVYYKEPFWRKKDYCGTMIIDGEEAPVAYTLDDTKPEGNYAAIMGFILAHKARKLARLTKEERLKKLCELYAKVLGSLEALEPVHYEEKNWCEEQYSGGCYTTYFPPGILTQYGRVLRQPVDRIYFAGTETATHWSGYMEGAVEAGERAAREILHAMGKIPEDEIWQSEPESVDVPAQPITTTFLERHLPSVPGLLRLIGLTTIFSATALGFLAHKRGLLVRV
# Target: Amine oxidase [flavin-containing] B (Homo sapiens, UniProt P27338)
# Assay: Fluorescence-Based (Inhibitor)-Screening Assay: In order to monitor MAO enzymatic activities and/or their inhibition rate by inhibitor(s) of interest, a fluorescence-based (inhibitor)-screening assay was set up. 3-(2-Aminophenyl)-3-oxopropanamine (kynuramine dihydrobromide, Sigma Aldrich), a non fluorescent compound was chosen as a substrate. Kynuramine is a non-specific substrate for both MAO-A …
smiles,measurement,value
N[C@H]1CC[C@H](N[C@@H]2C[C@H]2c2ccccc2)CC1,Ki,> 40 µM
